# From publication PMC2866327, “Designed Inhibitors of Insulin-Degrading Enzyme Regulate the Catabolism and Activity of Insulin” (PLoS ONE, 2010)
# Protein sequences, listed by entry. Tags and fused reporters are not part of them.
# UniProt P14735, whole entry: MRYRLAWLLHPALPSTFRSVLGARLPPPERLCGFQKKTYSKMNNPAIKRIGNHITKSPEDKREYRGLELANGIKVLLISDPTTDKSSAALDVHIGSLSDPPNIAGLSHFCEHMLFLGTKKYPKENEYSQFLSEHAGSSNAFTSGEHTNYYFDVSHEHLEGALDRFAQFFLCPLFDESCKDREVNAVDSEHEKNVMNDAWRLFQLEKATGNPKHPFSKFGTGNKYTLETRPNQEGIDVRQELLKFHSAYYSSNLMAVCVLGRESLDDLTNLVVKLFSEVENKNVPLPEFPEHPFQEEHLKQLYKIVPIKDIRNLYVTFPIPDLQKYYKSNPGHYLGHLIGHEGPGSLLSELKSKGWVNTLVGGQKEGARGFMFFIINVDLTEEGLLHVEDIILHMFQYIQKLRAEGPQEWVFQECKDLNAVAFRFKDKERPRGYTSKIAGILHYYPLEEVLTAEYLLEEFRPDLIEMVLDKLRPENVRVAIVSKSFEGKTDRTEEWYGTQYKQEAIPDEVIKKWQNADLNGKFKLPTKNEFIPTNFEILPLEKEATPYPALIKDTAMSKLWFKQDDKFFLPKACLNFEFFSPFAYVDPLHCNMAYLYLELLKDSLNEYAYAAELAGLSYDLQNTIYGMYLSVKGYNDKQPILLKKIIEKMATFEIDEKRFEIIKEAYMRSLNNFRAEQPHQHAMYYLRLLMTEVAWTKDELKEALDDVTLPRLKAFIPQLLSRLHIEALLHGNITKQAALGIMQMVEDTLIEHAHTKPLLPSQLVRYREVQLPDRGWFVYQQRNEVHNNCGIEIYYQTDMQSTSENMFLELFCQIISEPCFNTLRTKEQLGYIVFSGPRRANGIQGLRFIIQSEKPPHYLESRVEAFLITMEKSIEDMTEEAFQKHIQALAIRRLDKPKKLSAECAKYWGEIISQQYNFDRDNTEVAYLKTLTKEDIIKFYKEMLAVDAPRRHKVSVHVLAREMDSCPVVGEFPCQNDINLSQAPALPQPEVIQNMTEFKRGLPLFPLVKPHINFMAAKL
# Molecular target: IDE (Homo sapiens, UniProt P14735)
# Test: In vitro IDE enzymatic assay (hydrolysis of FRET1, SP1, FAβB, 125I-insulin or insulin by HTRF)
# Type: biochemical
# Parameters: made in house; host or cells: bacteria
# Settings: pure diastereomers based on Phe-Arg-Trp-Glu
row,SMILES,Ki [nM]
1,N=C(N)NCCC[C@H](NC(=O)[C@@H](CC(=O)NO)Cc1ccccc1)C(=O)N[C@@H](Cc1c[nH]c2ccccc12)C(=O)N[C@@H](CCC(=O)O)C(N)=O,110
2,N=C(N)NCCC[C@H](NC(=O)[C@H](CC(=O)NO)Cc1ccccc1)C(=O)N[C@@H](Cc1c[nH]c2ccccc12)C(=O)N[C@@H](CCC(=O)O)C(N)=O,4100
